Our source for the inhibition values is PubChem BioAssay AID651995 (Sanford-Burnham Center for Chemical Genomics, 2013).

This is a selection; strong and weak results do not stand in their true shares. The source made the active and inactive calls.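 The calls were made as follows: active = mean inhibition above about 25% (limit read from the data); inactive = the rest.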

The nature of this assay: Wnt3a reporter signal inhibition, confirmation, counter-screen for Gli-SUFU antagonist project, Wnt-LIGHT cells, luminescence, single concentration (AID 651995). Particulars: Wnt3a-driven luciferase reporter, at 6.25 µM, active compounds read high.
By inhibition is commonly meant the change of the read-out against control, counted positive when it falls. `CN1CCCC(OC(=O)C(c2ccccc2)c2ccccc2)C1` (stereo not drawn): the inhibition was inactive: -43.5%. The same measure for `N#C/C(=C\c1ccc(N(CCBr)CCBr)cc1)C(N)=O`: inactive: 24.6%; for `CC(=O)NC(SC(=S)N(C)C)C(Cl)(Cl)Cl` (stereo not drawn): inactive: -8.55%.
